Data: patent publication US20240218074A1 (AKESO BIOPHARMA, published 2024)

T1: human NT5E-Biotin (NT5E is GenbankID: NP_002517.1, position: 1-552) (human, UniProt P21589 27-552, biotin label (site not stated))
T1 construct: range 1-552; Recombinant soluble antigen made by Akeso (batch 20160505), biotinylated and captured on streptavidin; also called HNT5E-Biotin; human NT5E (1-552)-Biotin
T1 sequence (looked up): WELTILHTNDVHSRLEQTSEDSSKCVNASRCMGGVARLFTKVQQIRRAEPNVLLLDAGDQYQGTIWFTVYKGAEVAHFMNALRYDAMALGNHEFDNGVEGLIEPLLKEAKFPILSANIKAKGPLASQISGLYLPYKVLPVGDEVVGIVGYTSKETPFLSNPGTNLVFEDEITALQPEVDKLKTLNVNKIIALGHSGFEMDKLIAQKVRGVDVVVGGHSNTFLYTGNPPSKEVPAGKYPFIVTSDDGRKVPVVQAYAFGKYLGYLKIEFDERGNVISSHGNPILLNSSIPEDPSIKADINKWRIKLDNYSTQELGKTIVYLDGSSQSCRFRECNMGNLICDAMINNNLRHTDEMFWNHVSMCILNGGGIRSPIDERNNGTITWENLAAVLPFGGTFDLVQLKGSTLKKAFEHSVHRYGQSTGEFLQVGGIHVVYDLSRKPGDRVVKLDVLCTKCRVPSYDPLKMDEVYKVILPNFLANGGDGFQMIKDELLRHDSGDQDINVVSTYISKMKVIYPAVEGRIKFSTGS


Tests used:
[1] = biological target: T1, human NT5E-Biotin (NT5E is GenbankID: …); experiment: ELISA on streptavidin-captured human NT5E-Biotin; HRP goat anti-human IgG
[2] = biological target: T1, human NT5E-Biotin (NT5E is GenbankID: …); experiment: ELISA on streptavidin-captured human NT5E-Biotin; antibody 0.333 ug/mL; replicate 1
[3] = biological target: T1, human NT5E-Biotin (NT5E is GenbankID: …); experiment: ELISA on streptavidin-captured human NT5E-Biotin; antibody 0.333 ug/mL; replicate 2
[4] = biological target: T1, human NT5E-Biotin (NT5E is GenbankID: …); experiment: ELISA on streptavidin-captured human NT5E-Biotin; antibody 0 (blank well); replicate 1
[5] = biological target: T1, human NT5E-Biotin (NT5E is GenbankID: …); experiment: ELISA on streptavidin-captured human NT5E-Biotin; antibody 0 (blank well); replicate 2
[6] = biological target: T1, human NT5E-Biotin (NT5E is GenbankID: …); experiment: ELISA on streptavidin-captured human NT5E-Biotin; antibody 1:3 dilution of 0.333 ug/mL; replicate 1
[7] = biological target: T1, human NT5E-Biotin (NT5E is GenbankID: …); experiment: ELISA on streptavidin-captured human NT5E-Biotin; antibody 1:3 dilution of 0.333 ug/mL; replicate 2
[8] = biological target: T1, human NT5E-Biotin (NT5E is GenbankID: …); experiment: ELISA on streptavidin-captured human NT5E-Biotin; antibody 1:9 dilution of 0.333 ug/mL; replicate 1
[9] = biological target: T1, human NT5E-Biotin (NT5E is GenbankID: …); experiment: ELISA on streptavidin-captured human NT5E-Biotin; antibody 1:27 dilution of 0.333 ug/mL; replicate 1
[10] = biological target: T1, human NT5E-Biotin (NT5E is GenbankID: …); experiment: ELISA on streptavidin-captured human NT5E-Biotin; antibody 1:27 dilution of 0.333 ug/mL; replicate 2
[11] = biological target: T1, human NT5E-Biotin (NT5E is GenbankID: …); experiment: ELISA on streptavidin-captured human NT5E-Biotin; antibody 1:81 dilution of 0.333 ug/mL; replicate 1
[12] = biological target: T1, human NT5E-Biotin (NT5E is GenbankID: …); experiment: ELISA on streptavidin-captured human NT5E-Biotin; antibody 1:81 dilution of 0.333 ug/mL; replicate 2
[13] = biological target: T1, human NT5E-Biotin (NT5E is GenbankID: …); experiment: ELISA on streptavidin-captured human NT5E-Biotin; antibody 1:243 dilution of 0.333 ug/mL; replicate 1
[14] = biological target: T1, human NT5E-Biotin (NT5E is GenbankID: …); experiment: ELISA on streptavidin-captured human NT5E-Biotin; antibody 1:243 dilution of 0.333 ug/mL; replicate 2
[15] = biological target: T1, human NT5E-Biotin (NT5E is GenbankID: …); experiment: ELISA on streptavidin-captured human NT5E-Biotin; antibody 1:729 dilution of 0.333 ug/mL; replicate 1
[16] = biological target: T1, human NT5E-Biotin (NT5E is GenbankID: …); experiment: ELISA on streptavidin-captured human NT5E-Biotin; antibody 1:729 dilution of 0.333 ug/mL; replicate 2

EC50 [1] [nM]	OD (450 nm) [2] [OD450]	OD (450 nm) [3] [OD450]	OD (450 nm) [4] [OD450]	OD (450 nm) [5] [OD450]	OD (450 nm) [6] [OD450]	OD (450 nm) [7] [OD450]	OD (450 nm) [8] [OD450]	OD (450 nm) [9] [OD450]	OD (450 nm) [10] [OD450]	OD (450 nm) [11] [OD450]	OD (450 nm) [12] [OD450]	OD (450 nm) [13] [OD450]	OD (450 nm) [14] [OD450]	OD (450 nm) [15] [OD450]	OD (450 nm) [16] [OD450]	Binder
0.064	2.6	2.69	0.119	0.123	2.58	2.62	2.16	1.58	1.68	0.87	0.933	0.434	0.454	0.239	0.247	humanized anti-CD73 antibody 19F3H2L2 (antibody, IgG1, V domains shown) VH: QVQLVQSGAEVVKPGASVKVSCKASGYSFTGYTMNWVRQAPGQNLEWIGLINPYNAGTSYNQKFQGKVTLTVDKSTSTAYMELSSLRSEDTAVYYCARSEYRYGGDYFDYWGQGTTLTVSS VL: DIVMTQSPSSLAVSVGERVTISCKSSQSLLNSSNQKNYLAWYQQKPGQAPKLLIYFASTRESGVPDRFSGSGSGTDFTLTISSVQAEDVADYYCQQHYDTPYTFGGGTKLEIKR
0.049	2.65		0.125	0.123	2.6	2.7	2.41	1.82	1.82	1.04	1.03	0.525	0.516	0.26	0.273	humanized anti-CD73 antibody 19F3H1L1 (antibody, IgG1, V domains shown) VH: QVQLQQSGAEVVKPGASMKMSCKASGYSFTGYTMNWVKQAHGQNLEWIGLINPYNAGTSYNQKFQGKATLTVDKSTSTAYMELSSLRSEDTAVYYCARSEYRYGGDYFDYWGQGTTLTVSS VL: not shown
